Active and inactive are the calls of the source. The calls are words filed in the database; no cut-off is given here.

The chains behind the UniProt entries cited, without tags or fusion partners.
von Hippel-Lindau disease tumor suppressor/Bromodomain-containing protein 4 (Homo sapiens), O60885+P40337, UniProt P40337, whole entry, looked up: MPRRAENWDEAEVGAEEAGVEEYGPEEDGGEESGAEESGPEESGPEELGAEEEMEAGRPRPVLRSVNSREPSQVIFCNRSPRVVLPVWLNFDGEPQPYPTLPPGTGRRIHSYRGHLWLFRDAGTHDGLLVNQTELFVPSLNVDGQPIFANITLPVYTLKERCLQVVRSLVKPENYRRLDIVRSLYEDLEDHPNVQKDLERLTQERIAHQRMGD

Assay [1] concerns von Hippel-Lindau disease tumor suppressor/Bromodomain-containing protein 4 (Homo sapiens), O60885+P40337 [L387A]. Put plainly: Bump and hole PROTAC activity at BromoTag-Brd4 BD2 L387A mutant/VHL-bound E3 ligase in HEK293 cells assessed as Brd2 degradation measured in presence of MLN4924 after 6 hrs by Western blot analysis. The class given is cell-based. (In western blotting, separated proteins are transferred to a membrane and probed.)

Assay [2] shares this test system. The assay is described as follows: Bump and hole PROTAC activity at BromoTag-Brd4 BD2 L387A mutant/VHL-bound E3 ligase in HEK293 cells assessed as Brd2 degradation measured in presence of VH298 after 6 hrs by Western blot analysis. The class given is cell-based.

In the case of `CC[C@@H](C(=O)OCCOCCOCCOCC(=O)N[C@H](C(=O)N1C[C@H](O)C[C@H]1C(=O)NCc1ccc(-c2scnc2C)cc1)C(C)(C)C)[C@@H]1N=C(c2ccc(Cl)cc2)c2c(sc(C)c2C)-n2c(C)nnc21`, the inhibition result in assay [1] and in assay [2] was “Active” in each case.

(Values after ChEMBL document CHEMBL5053531, “Development of BromoTag: A "Bump-and-Hole"-PROTAC System to Induce Potent, Rapid, and Selective Degradation of Tagged Target Proteins” (J Med Chem, 2021).)
